For 80 compounds, activation results are on record in PubChem BioAssay AID1032 (The Scripps Research Institute Molecular Screening Center, 2008).

By UniProt entry, the sequences of proteins in these tests, tags left out. Where a name states a change or a piece, a line headed by the entry shows the natural chain unless it says otherwise.
UniProt P37231: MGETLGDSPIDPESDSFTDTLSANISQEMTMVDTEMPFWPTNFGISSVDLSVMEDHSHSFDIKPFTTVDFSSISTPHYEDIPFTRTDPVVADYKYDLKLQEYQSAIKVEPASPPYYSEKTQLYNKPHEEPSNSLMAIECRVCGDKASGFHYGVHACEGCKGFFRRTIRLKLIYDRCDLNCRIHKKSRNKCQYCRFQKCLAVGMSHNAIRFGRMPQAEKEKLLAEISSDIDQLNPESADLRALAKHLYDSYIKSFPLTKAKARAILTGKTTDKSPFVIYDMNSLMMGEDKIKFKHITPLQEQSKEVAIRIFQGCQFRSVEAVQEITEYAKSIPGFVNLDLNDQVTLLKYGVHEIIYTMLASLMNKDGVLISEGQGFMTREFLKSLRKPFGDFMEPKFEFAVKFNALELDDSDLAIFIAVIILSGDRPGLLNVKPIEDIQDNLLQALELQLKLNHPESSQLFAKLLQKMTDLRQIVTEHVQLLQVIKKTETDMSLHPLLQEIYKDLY

The structures appear in SMILES notation. The entries are a selection whose mix differs from that of the whole data set. The source made the active and inactive calls. Rule as the data show it: active = activation above about 22%; inactive = the rest.

This experiment addresses Peroxisome proliferator-activated receptor gamma (Homo sapiens) (UniProt P37231). Briefly: compounds enhancing SRC-2 coactivator binding to PPARgamma – biochemical, HTS, primary screen (AID 1032).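 Also: 0% = vehicle and 100% = reference agonist.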 Particulars: PPARgamma LBD-SRC-2 recruitment, at 8 µM, hits give high values.
For `CCC(C)N(CC(C)C)C(=S)SC(NC(C)=O)C(Cl)(Cl)Cl` (stereo not given), the activation is inactive: 17.3%.
Consider `COP1(=S)c2c(C)nn(CCC#N)c2N=C(c2ccc(F)cc2)N1C` (stereo not given), for which the activation was inactive: 5.31%.
On to `O=C(COc1ccccc1)OC1CN2CCC1CC2` (stereo not given), for which the activation was inactive: -0.81%.
The result for `Cc1cc(SC(NC=O)C(Cl)(Cl)Cl)ncn1` (stereo not given) reads inactive: 3.79%; that for `O=P(Nc1ccccn1)(c1cccc2ccccc12)c1cccc2ccccc12`, inactive: -0.03%; that for `Cc1cc(SC(NC(=O)c2ccccc2)C(Cl)(Cl)Cl)nc(C(C)C)n1` (stereo not given), inactive: 6.92%.
The result for `ClCCSc1nnc(-c2cccnc2)o1` reads inactive: 1.7%; that for `O=[N+]([O-])c1cc([N+](=O)[O-])c(-c2ccn[nH]2)s1`, inactive: 3.37%; that for `CC(C)NC(=O)NP(=O)(Oc1ccccc1)Oc1ccccc1`, inactive: 0.92%.
The result for `CCN(CC)C(=S)SC(NC=O)C(Cl)(Cl)Cl` (stereo not given) reads inactive: -5.02%.
With `Cc1ccc2nc3c(c(C)c2c1)CC(C(Cl)Cl)S3` (stereo not given), the activation was inactive: 0.88%.
The result for `COc1ccc(N/C(=N/P(=O)(N2CCOCC2)N2CCOCC2)N2CCOCC2)cc1` reads inactive: 12.1%; that for `Cc1cc(=O)[nH]c(N[N+](=O)[O-])n1`, inactive: 0.77%; that for `O=C(OC1CN2CCC1CC2)C12CC3CC(CC(C3)C1)C2` (stereo not given), inactive: 5.12%.
The result for `Cc1c2c(nc3ccccc13)SC(C(Cl)Cl)C2` (stereo not given) reads inactive: 0.14%; that for `COc1ccc2nc(NP(=O)(c3ccccc3)c3ccccc3)sc2c1`, inactive: -3.71%; that for `Cc1ccc(NCCc2c([N+](=O)[O-])cc([N+](=O)[O-])cc2[N+](=O)[O-])cc1`, inactive: 10.7%.
As for `CCOP(=O)(Nc1cccc2ccccc12)OCC`, the activation was inactive: 3.54%.
The result for `COc1cc(C2NCCC3(OCCO3)C2(C)C)cc(OC)c1OC` (stereo not given) reads inactive: 7.24%.
Under `COc1cc(C(=O)NCC2(N3CCOCC3)CCCCC2)cc(Cl)c1OC(C)C` stands inactive: 7.94%; under `Cc1cccc(OCC(=O)OC2CN3CCC2CC3)c1` (stereo not given), inactive: -5.05%.
The result for `O=[N+]([O-])c1ccc2c(c1)nnn2O` reads inactive: 7.54%; that for `CCOP1(=S)c2c(C)nn(CCC#N)c2N=C(c2ccc(F)cc2)N1C` (stereo not given), inactive: -3.39%.
Take `O=P(Nc1nccs1)(Oc1ccccc1)Oc1ccccc1`: the activation is inactive: -2.65%.
On to `O=P(Nc1nccs1)(c1ccccc1)c1nc2ccccc2s1` (stereo not given), for which the activation was inactive: 7.81%.
The result for `CCOP1(=S)c2c(C)nn(CCC#N)c2N=C(c2ccccc2F)N1C` (stereo not given) reads inactive: 0.96%.
The result for `O=P1(Nc2ncccn2)COc2ccccc2OC1` reads inactive: -11.3%; that for `Cc1ccc(OCC(=O)OC2CN3CCC2CC3)cc1` (stereo not given), inactive: -1.36%; that for `O=P1(Nc2ccc(Br)cn2)COc2ccccc2OC1`, inactive: -6.3%.
Under `CC1CCC(C(C)C)C(OP(=O)(Nc2ccccn2)c2ccccc2)C1` (stereo not given) stands inactive: 3.51%; under `Cc1nn(-c2ccccc2)c2c1P(=O)(N1CCOCC1)N(C)C(c1ccccc1)=N2` (stereo not given), inactive: 8.72%.
For the compound `CN(C)C1(CNC(=O)c2ccc(S(C)(=O)=O)cc2)CCCCC1`, the activation is inactive: -5.96%.
The result for `CC1(CBr)Cn2c(nc3ccccc3c2=O)S1` (stereo not given) reads inactive: 5.38%; that for `CN(C(=O)Cc1ccc(Cl)c(Cl)c1)[C@@H]1CCCC[C@H]1N1CCCC1`, inactive: 4%; that for `CC(C)/C=N\N=C(\N)N[N+](=O)[O-]`, inactive: -10.8%.
With `O=P1(Nc2ccccn2)COc2ccccc2OC1`, the activation is inactive: -0.98%.
Under `Clc1n[nH]nc1-c1nn[nH][15n]1` stands inactive: 6.42%.
The result for `O=P(Nc1nccs1)(c1ccccc1)c1ccccc1` reads inactive: 10.8%; that for `CC(C)C(=O)NC(Sc1ccccc1)C(Cl)(Cl)Cl` (stereo not given), inactive: 2.18%; that for `c1nnnn1CCn1cnnn1`, inactive: 0.26%.
Under `CC(=O)NC(SC(=S)N(C)C)C(Cl)(Cl)Cl` (stereo not given) stands inactive: -10.7%.
With `C(Cc1nn[nH]n1)Cc1nn[nH]n1`, the activation is inactive: -5.32%.
The result for `O=C(OC1CN2CCC1CC2)c1cccc(Cl)c1` (stereo not given) reads inactive: 10.7%; that for `O=P(Nc1ccccn1)(c1ccc(Br)cc1)c1ccc(Br)cc1`, inactive: 9.01%; that for `Cc1ccc(OP(=O)(Nc2ccccn2)Oc2ccc(C)cc2)cc1`, inactive: -6.28%.
Under `CC(=O)NC(SC(=S)N(CC(C)C)CC(C)C)C(Cl)(Cl)Cl` (stereo not given) stands inactive: 13.5%.
Consider `COC(=O)c1cc2c(s1)N=C(c1ccccc1)N(C)P2(=O)N1CCOCC1` (stereo not given), for which the activation was inactive: 3.67%.
With `CCC(=O)N1C2C3N(C(=O)CC)C1C1N(C(=O)CC)C(C(N1C(=O)CC)N3C(=O)CC)N2C(=O)CC`, the activation was inactive: 6.39%.
For `O=c1c2cc([N+](=O)[O-])ccc2[nH]c2c([N+](=O)[O-])cc([N+](=O)[O-])cc12`, the activation was inactive: -1.64%.
The result for `O=C(NC1CCS(=O)(=O)C1)NP(=S)(Oc1ccccc1)Oc1ccccc1` (stereo not given) reads inactive: 0.55%.
The result for `CCNC(=S)/N=C(\N)N[N+](=O)[O-]` reads inactive: 0.94%; that for `CCOC(=O)NC(Sc1ccccc1)C(Cl)(Cl)Cl` (stereo not given), inactive: -5.05%; that for `c1ccc(-c2nn[nH]n2)c(-c2nn[nH]n2)c1`, inactive: 0.06%.
Under `CC(=O)Nc1ccc(Oc2c([N+](=O)[O-])cc([N+](=O)[O-])cc2[N+](=O)[O-])cc1` stands inactive: -1.17%; under `CCOc1ccc(C2=NCC(CBr)S2)cc1` (stereo not given), inactive: -0.66%; under `O=P1(Nc2nc3ccc(Cl)cc3s2)COc2ccccc2O1` (stereo not given), inactive: 1.46%.
For `CC(C)(C)C(=O)NC(Sc1ccccc1)C(Cl)(Cl)Cl` (stereo not given), the activation was inactive: -9.18%.
The result for `CC(C)CC(=O)NC(Sc1ccc(Cl)cc1)C(Cl)(Cl)Cl` (stereo not given) reads inactive: -9.46%.
Under `O=C(NC(Sc1ccncn1)C(Cl)(Cl)Cl)c1ccccc1` (stereo not given) stands inactive: -3.49%; under `Cc1c2non([O-])c-2c(C)[n+](=O)[n+]1[O-]`, inactive: 4.09%; under `Oc1ccccc1CNc1ccccn1`, inactive: 0.85%.
Under `NC(=O)c1cc([N+](=O)[O-])cc([N+](=O)[O-])c1N` stands inactive: -1.19%; under `Cc1ccc(N/C(=N/P(=O)(N2CCOCC2)N2CCOCC2)N2CCOCC2)cc1`, inactive: 0.83%.
`COc1ccccc1OP(=O)(Nc1ccc(C)cn1)Oc1ccccc1OC`: the activation is inactive: -3.94%.
Under `CN1CCCC(OC(=O)C(c2ccccc2)c2ccccc2)C1` (stereo not given) stands inactive: 6.16%; under `Clc1ccc(Cl)c(NC2=NCC(CBr)S2)c1` (stereo not given), inactive: 0.95%.
The result for `CCN(N=Nc1nonc1N)c1nonc1N` reads inactive: -9.09%; that for `Cc1cc(SC(NC(=O)c2ccc(F)cc2)C(Cl)(Cl)Cl)ncn1` (stereo not given), inactive: 5.75%.
Under `CCOP(=O)(Nc1ccccc1)OCC` stands inactive: -2.01%.
For the compound `O=[N+]([O-])c1ncn(CCn2ncnc2[N+](=O)[O-])n1`, the activation is inactive: 1.48%.
In the case of `CCN(/C(=N/P(=O)(N1CCOCC1)N1CCOCC1)N1CCOCC1)c1ccc(OC)cc1`, the activation is inactive: 10%.
Turning to `CN(C)C(=O)OCCc1n(C)cc[n+]1C`, the activation is inactive: 1.22%.
Under `CC(C)=N/N=C(\N)N[N+](=O)[O-]` stands inactive: -8.53%; under `CC1CCN(C(=O)Oc2c(Cl)cc(Cl)c3cccnc23)CC1`, inactive: 7.95%; under `COc1ccc(C2=NCC(CBr)S2)cc1` (stereo not given), inactive: 0.14%.
In the case of `CC(=O)N1C2C3N(C(C)=O)C1C1N(C(C)=O)C(C(N1C(C)=O)N3C(C)=O)N2C(C)=O`, the activation is inactive: 4.46%.
For `O=[N+]([O-])c1cccc2n[nH]nc12`, the activation is inactive: 5.99%.
`O=[N+]([O-])c1cc([N+](=O)[O-])c(CCNc2ccccc2)c([N+](=O)[O-])c1`: the activation was inactive: 2%.
Take `CCc1nc2c(n1)c1c(non1O)c1c2no[n+]1[O-]`: the activation is inactive: -5.79%.
For the compound `Cc1ccc(NP(=O)(Oc2ccccc2)Oc2ccccc2)nc1`, the activation was inactive: -7.48%.
